# In BindingDB's records for doi:10.1016/0028-3908(94)90059-0 (University of Alberta, 1994):
# Sequences of proteins named here, by UniProt entry; tags and fusion partners are left off.
# UniProt P30994, whole entry: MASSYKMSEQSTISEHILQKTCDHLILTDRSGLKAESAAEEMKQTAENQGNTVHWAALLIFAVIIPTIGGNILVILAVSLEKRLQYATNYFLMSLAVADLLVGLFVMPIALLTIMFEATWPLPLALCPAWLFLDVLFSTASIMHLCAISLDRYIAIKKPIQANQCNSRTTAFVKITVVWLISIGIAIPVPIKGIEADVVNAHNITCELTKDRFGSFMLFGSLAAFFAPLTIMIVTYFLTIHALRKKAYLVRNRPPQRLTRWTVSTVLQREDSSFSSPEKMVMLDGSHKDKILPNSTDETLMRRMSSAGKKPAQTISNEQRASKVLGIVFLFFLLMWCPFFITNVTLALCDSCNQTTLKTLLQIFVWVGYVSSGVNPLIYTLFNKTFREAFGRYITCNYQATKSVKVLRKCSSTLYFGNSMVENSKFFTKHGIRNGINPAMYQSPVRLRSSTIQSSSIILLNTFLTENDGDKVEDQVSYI
# UniProt P32304, whole entry: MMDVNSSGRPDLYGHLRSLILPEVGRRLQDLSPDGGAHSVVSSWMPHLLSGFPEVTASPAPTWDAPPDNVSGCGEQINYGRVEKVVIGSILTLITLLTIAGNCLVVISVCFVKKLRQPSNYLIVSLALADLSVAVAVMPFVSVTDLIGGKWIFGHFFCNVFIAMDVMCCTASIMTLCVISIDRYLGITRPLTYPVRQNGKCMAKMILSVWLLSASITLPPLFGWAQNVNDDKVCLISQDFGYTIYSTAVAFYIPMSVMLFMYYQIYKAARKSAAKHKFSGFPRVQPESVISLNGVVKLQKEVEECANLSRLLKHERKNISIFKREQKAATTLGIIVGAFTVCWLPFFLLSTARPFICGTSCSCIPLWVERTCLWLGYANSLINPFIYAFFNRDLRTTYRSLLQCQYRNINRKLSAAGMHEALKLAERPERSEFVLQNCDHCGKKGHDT
# UniProt P35365, whole entry: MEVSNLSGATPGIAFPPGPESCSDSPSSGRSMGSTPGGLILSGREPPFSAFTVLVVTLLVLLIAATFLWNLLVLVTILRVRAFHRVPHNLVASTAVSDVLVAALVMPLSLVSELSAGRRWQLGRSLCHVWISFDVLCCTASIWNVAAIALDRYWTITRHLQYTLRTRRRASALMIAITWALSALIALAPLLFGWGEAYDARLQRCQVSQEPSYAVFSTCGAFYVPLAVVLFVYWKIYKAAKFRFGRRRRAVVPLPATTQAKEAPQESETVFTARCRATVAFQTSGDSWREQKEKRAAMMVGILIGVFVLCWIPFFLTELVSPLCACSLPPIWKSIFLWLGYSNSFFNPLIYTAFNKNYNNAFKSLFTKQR
# UniProt P28222, whole entry: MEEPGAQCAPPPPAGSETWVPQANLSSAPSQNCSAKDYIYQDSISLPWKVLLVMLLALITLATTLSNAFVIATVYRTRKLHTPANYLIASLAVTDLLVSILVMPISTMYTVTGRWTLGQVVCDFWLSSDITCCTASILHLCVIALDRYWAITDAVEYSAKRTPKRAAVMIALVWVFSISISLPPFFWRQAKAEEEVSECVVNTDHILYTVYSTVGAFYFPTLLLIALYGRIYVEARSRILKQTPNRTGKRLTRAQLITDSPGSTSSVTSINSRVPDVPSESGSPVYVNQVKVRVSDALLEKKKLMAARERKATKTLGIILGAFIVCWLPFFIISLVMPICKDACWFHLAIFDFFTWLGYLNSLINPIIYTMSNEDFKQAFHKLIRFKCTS
# What was measured:
# [1] = target: 5-hydroxytryptamine receptor 2B (Rattus norvegicus, UniProt P30994)
# [2] = target: 5-hydroxytryptamine receptor 7 (Mus musculus, UniProt P32304)
# [3] = target: 5-hydroxytryptamine receptor 5B (Rattus norvegicus, UniProt P35365)
# [4] = target: T1, 5-hydroxytryptamine receptor 2C (Rattus norvegicus, UniProt P08909)
# T1 sequence (P08909 whole entry): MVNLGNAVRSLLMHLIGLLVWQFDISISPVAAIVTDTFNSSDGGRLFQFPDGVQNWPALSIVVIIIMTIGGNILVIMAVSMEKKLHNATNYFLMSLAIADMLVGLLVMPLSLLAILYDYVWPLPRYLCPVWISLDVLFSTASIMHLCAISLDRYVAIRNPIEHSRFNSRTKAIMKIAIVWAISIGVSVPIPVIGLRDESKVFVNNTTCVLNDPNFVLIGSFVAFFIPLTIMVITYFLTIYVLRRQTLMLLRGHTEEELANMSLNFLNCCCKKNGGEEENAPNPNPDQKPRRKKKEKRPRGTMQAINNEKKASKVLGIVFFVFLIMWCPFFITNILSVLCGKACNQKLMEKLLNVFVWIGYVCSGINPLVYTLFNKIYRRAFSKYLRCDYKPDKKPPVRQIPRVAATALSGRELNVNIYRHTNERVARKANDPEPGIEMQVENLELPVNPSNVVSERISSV
# [5] = target: T2, 5-hydroxytryptamine receptor 1F (Rattus norvegicus, UniProt P30940)
# T2 sequence (P30940 whole entry): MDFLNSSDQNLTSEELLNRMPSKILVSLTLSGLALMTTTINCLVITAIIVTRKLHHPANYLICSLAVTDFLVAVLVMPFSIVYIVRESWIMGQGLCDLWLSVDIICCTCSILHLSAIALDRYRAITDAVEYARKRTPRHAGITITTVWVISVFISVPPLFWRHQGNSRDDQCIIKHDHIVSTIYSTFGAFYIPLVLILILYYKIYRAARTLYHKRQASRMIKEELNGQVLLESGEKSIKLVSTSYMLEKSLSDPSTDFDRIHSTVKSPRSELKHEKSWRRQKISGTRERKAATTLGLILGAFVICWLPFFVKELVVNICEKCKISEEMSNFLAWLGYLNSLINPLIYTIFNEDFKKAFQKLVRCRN
# [6] = target: 5-hydroxytryptamine receptor 1B (Homo sapiens, UniProt P28222)
smiles,measurement,setting,value
CN1C[C@@H](NS(=O)(=O)N(C)C)C[C@@H]2c3cccc4c3c(cn4C)C[C@H]21 [MESULERGINE],Ki,[1],36.3 nM
"CSc1ccc2c(c1)C(N1CCN(C)CC1)Cc1ccccc1S2 (configuration not stated) [methanesulfonic acid;1-methyl-4-(3-methylsulfanyl-5,6-dihydrobenzo[b][1]benzothiepin-5-yl)piperazine]",Ki,[2],6.3 nM
NCCc1c[nH]c2ccc(O)cc12 [[3H]-5-HT],Ki,[3],1320 nM
Cc1nc2sccn2c(=O)c1CCN1CCC(=C(c2ccc(F)cc2)c2ccc(F)cc2)CC1,Ki,[1],5.12 nM
"COc1cc(CC(C)N)c(OC)cc1Br (stereo not drawn) [2-(4-Bromo-2,5-dimethoxy-phenyl)-1-methyl-ethylamine((-)-DOB)]",Ki,[4],3.01 nM
CNS(=O)(=O)Cc1ccc2[nH]cc(CCN(C)C)c2c1 [Sumax],Ki,[5],64.6 nM
"CC(C)NC[C@H](O)COc1cccc2ccccc12 [Propanolol,(+/-)]",Ki,[6],56.2 nM
